Experimental data from patent publication US20040097598A1, “Method of treating neurological disorders using acetone derivatives” (priority 2001, published 2004).

Tested on: MES seizure
Test: maximal electroshock (MES) seizure test
Format: in vivo
Settings: ratio TD50 (rotorod)/ED50 (MES), mice
Protocol: Male CF-1 mice, weighing 28-30 g, were used as subjects (Charles River Canada, La Prairie, Quebec, Canada). Three to five subjects per drug dose were used to prescreen each compound for anticonvulsant activity. Prescreening involved injecting subjects with the drug at doses of 3, 6 mmol/kg and assessing activity and toxicity 30 min later. Promising compounds progressed to dose-response studies, which employed at least 50 subjects, 10 subjects per dose.
Compounds were dissolved in oil and injected intraperitoneally.
Thirty minutes after drug injection, the MES seizure test was administered. We used the procedure of Krall et al. (1978). In brief, a seizure was induced using the electrical current applied via corneal electrodes. The current was set to 50 mA with a 60 Hz sine wave pulse configuration and train duration of 0.2 sec. Seizure protection was defined in this model as a failure to extend the hind limbs to an angle greater than 90 degrees during the tonic period of the convulsion.
Data analysis was performed using GraphPad Prizm software package version 3.02 for Windows (GraphPad Software Inc, San Diego, Calif., USA). […] Therapeutic index (TI) was calculated as a ratio of TD50/ED50.

## Acetone
  TI (therapeutic index): 2.2
